Test results taken from BindingDB's records for doi:10.1016/j.bmcl.2011.06.080 (Johnson & Johnson Pharmaceutical Research and Development, 2011).

Test: Antagonist activity at CCR2 in human THP1 cells assessed as inhibition of MCP1-induced chemotaxis after 3 hrs

Nc1cccnc1[C@H]1CC[C@H](N2CC(NC(=O)CNC(=O)c3cccc(C(F)(F)F)c3)C2)CC1
IC50: 35 nM
